Drawing on ChEMBL document CHEMBL2321834 (J Med Chem, 2013), this text covers Ratio IC50 for 1 molecule.

The species named for the assay is Homo sapiens. Kind of assay: Selectivity ratio of IC50 for 17beta-HSD1 in human placental microsomal fraction to IC50 for 17beta-HSD2 in human placental microsomal fraction. The assay is classed as microsomes. Particulars: Microsome.

On to `COc1cccc(N(C)C(=O)c2ccc(-c3ccc(OC)c(F)c3)s2)c1`, for which the Ratio IC50 was over 165.
